Laboratory results as given in patent US12565501B2, “Muscarinic acetylcholine M1 receptor antagonists” (Contineum Therapeutics, Inc., priority 2019, dated 2026).

Chains of the proteins cited; added tags and fusions are not shown.
UniProt P11229, whole entry: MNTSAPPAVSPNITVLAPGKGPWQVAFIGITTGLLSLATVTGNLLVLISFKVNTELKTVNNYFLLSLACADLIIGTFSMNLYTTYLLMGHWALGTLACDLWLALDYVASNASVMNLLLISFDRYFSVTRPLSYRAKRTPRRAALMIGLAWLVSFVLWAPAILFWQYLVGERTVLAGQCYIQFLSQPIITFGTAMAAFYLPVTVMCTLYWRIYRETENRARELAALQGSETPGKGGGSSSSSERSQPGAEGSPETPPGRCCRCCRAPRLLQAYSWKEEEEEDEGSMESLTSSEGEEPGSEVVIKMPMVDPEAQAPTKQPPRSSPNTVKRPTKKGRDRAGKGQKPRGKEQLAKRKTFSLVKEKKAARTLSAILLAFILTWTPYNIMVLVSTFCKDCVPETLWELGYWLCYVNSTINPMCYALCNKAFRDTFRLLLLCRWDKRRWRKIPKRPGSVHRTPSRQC
UniProt P08173, whole entry: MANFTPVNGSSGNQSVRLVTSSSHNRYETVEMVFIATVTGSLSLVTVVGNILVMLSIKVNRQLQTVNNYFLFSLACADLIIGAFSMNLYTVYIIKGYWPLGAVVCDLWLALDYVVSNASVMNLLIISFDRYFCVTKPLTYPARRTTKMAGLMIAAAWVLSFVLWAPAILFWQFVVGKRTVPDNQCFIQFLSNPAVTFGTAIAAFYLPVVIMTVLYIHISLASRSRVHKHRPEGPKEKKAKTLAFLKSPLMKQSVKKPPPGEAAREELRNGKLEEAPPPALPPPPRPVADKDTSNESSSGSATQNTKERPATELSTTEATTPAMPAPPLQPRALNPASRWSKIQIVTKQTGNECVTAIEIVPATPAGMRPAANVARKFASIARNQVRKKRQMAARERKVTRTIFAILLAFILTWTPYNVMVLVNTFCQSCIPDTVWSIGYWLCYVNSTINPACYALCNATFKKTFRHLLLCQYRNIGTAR
UniProt P20309, whole entry: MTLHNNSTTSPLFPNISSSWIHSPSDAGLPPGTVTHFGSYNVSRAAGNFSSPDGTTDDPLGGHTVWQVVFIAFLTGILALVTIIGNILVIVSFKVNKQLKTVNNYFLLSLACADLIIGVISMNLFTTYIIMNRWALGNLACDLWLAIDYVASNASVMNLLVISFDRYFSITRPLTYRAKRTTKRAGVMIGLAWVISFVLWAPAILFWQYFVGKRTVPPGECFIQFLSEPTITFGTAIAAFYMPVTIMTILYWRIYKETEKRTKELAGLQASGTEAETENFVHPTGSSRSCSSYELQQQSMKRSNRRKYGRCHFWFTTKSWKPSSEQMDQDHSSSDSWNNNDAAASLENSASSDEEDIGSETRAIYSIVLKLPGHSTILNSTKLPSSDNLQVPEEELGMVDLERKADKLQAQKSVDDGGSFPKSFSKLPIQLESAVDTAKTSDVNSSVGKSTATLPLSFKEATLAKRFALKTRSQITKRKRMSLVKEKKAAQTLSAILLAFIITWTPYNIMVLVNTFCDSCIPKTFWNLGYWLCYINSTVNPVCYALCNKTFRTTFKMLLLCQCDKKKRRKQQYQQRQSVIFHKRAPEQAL
UniProt P08172, whole entry: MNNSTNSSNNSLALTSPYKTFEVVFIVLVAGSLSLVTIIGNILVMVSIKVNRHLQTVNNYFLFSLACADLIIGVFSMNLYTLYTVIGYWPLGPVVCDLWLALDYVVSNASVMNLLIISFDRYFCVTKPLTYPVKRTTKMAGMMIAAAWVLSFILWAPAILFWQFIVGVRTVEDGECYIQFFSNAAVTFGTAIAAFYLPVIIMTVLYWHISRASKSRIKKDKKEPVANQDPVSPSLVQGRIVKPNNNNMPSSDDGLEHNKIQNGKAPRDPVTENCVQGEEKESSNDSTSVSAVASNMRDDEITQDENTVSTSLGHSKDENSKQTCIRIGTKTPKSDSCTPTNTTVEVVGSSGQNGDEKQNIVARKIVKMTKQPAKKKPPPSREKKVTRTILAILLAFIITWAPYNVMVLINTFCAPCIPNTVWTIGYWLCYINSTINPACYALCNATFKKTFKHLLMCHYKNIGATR

What was measured:
human M1 receptor = human M1 receptor (Homo sapiens, UniProt P11229); test: In vitro functional assay of muscarinic acetylcholine receptor activity (aequorin calcium flux, reversal of EC80 acetylcholine response); details: read-out: M1 IC50; CHO-K1 cells stably expressing human M1 receptor with aequorin; acetylcholine at EC80; calcium flux (luminescence)
human M4 receptor = human M4 receptor (Homo sapiens, UniProt P08173); test: In vitro functional assay, reversal of EC80 acetylcholine response in CHO-K1 aequorin cells; type: cell-based; details: read-out: M4 IC50, CHO-K1 cells stably expressing human M4 receptor with aequorin
Procedure: (§1) CHO-K1 cells stably expressing human M1 receptor with aequorin (Perkin Elmer) were grown in F12 media (Gibco) containing 10% FBS (ATCC), 0.4 mg/mL geneticin (Sigma-Aldrich) and 0.25 mg/mL Zeocin (Invitrogen). Cells were grown as per the manufacturer's protocol. For compound testing, cells were grown to confluency and detached gently with Accutase (Sigma-Aldrich) followed by centrifugation for 5 min at 150× g. Cells were then re-suspended in assay buffer (i.e. DMEM/F-12 HEPES without phenol red (Invitrogen) with 0.1% BSA (Sigma-Aldrich)) at a density of 5×10^6 cells/ml. Under sterile conditions, 5 μM coelenterazine (Invitrogen) was added to the cells, mixed, then incubated at room temperature protected from light, with gentle agitation, for 4 h.
(§2) Primary compound plates were prepared in 100% DMSO in opaque 96-well plates (VWR) and serially diluted in half log increments. Secondary compound plates were prepared at 3× concentration in assay buffer. Compounds were added to white, clear bottom tissue culture treated 96-well plates (Fisher Scientific). Coelenterazine-loaded cells were then added at 5×10^5 cells/well.
(§3) Compounds and cells were incubated at room temperature for 30 min in the dark. Acetylcholine at the EC80 concentration was added and calcium flux measured using a FlexStation 3 (Molecular Devices). Sigmoidal dose-response curves were generated by measuring luminescence over 40 sec and calculating the area under the curve. Dose response curves and IC50 values were generated using Prism (GraphPad). Compounds were tested at a final concentration range of 100 μM to […] in 0.1% DMSO.
(§4) CHO-K1 cells stably expressing human M2, M3 and M4 receptors, respectively, with aequonin (Perkin Elmer) were used to assess a test compound's ability to dose-dependently reverse the EC80 acetylcholine response. The IC50 of the compounds was calculated from the dose response curve.

human M3 receptor = human M3 receptor (Homo sapiens, UniProt P20309); test: as above; type: cell-based; details: read-out: M3 IC50, CHO-K1 cells stably expressing human M3 receptor with aequorin
Procedure: as §1, §2, §3, §4

human M2 receptor = human M2 receptor (Homo sapiens, UniProt P08172); test: as above; type: cell-based; details: read-out: M2 IC50, CHO-K1 cells stably expressing human M2 receptor with aequorin
Procedure: as §1, §2, §3, §4

SMILES | IC50 (human M1 receptor) | IC50 (human M4 receptor) | IC50 (human M3 receptor) | IC50 (human M2 receptor)
N#Cc1ccc(N2C3CCC2CN(C(=O)CCNC(c2ccc(F)c(F)c2)C(F)F)C3)nc1 (single isomer, unassigned) [Example 320-entA] | 0.01 to 0.1 µM |  |  | 
COc1c(F)cccc1C(C)NCC(=O)N1CC2CCC(C1)N2c1ccc(C#N)cn1 (single isomer, unassigned) [Example 319-entA] | < 0.01 µM |  |  | 
N#Cc1ccc(N2C3CCC2CN(C(=O)CCNC(c2ccc(F)c(F)c2)C(F)F)C3)nc1 (single isomer, unassigned) [Example 320-entB] | < 0.01 µM |  |  | 
CC(NCCC(=O)N1CC2CCC(C1)N2c1ccc(C#N)cn1)c1cccc2ncccc12 (single isomer, unassigned) | < 0.01 µM | 1 to 10 µM | 1 to 10 µM | 1 to 10 µM
CC(OCC(=O)N1CC2CCC(C1)N2c1ccc(C#N)cn1)c1cccc2ncnn12 (single isomer, unassigned) [Example 321-entA] | 0.1 to 1 µM |  |  | 
N#Cc1ccc(N2C3CCC2CN(C(=O)COC2(c4ccnc(Br)c4)CCC2)C3)nc1 | 0.01 to 0.1 µM |  |  | 
CC(OCC(=O)N1CC2CCC(C1)N2c1ccc(C#N)cn1)c1cccc2ncnn12 (single isomer, unassigned) [Example 321-entB] | < 0.01 µM |  | 0.1 to 1 µM | 1 to 10 µM
COc1cccc(C(CO)CCC(=O)N2CC3CCC(C2)N3c2ccc(C#N)cn2)c1 (single isomer, unassigned) [Example 322-entA] | < 0.01 µM |  |  | 
COc1c(F)cccc1C(C)NCC(=O)N1CC2CCC(C1)N2c1ccc(C#N)cn1 (single isomer, unassigned) [Example 319-entB] | 0.1 to 1 µM |  |  | 
Cc1cc(C2(OCC(=O)N3CC4CCC(C3)N4c3ccc(C#N)cn3)CCC2)ccn1 | 0.01 to 0.1 µM |  |  | 
COc1cccc(C(CO)CCC(=O)N2CC3CCC(C2)N3c2ccc(C#N)cn2)c1 (single isomer, unassigned) [Example 322-entB] | 0.1 to 1 µM |  |  | 
